Experiment [1] relates to Escherichia coli. Description: Ratio of Kcat to Km for Escherichia coli MC4100 Beta-Lactamase CMY-30 harboring Val211?Gly211 mutation. The method in brief: (§1)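 Enzyme source was E. coli MC4100 carrying high-copy plasmids pB-cmy30 or pB-cmy2. Enzyme was released by sonication in 20 mM Tris, pH 7.4, then purified by Q- and S-Sepharose ion exchange to >95% purity by SDS-PAGE. Values are means of four independent measurements. For some β-lactams, Km was obtained as Ki using cephalothin as reporter substrate.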

The test system of experiment [2] is Escherichia coli. In words: Ratio of Kcat to Km for Escherichia coli MC4100 Beta-Lactamase CMY-2. The method in brief: (§2)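 CMY-2 purified from E. coli MC4100 carrying high-copy plasmid pB-cmy2. Cells in 20 mM Tris pH 7.4 sonicated, then Q- and S-Sepharose ion exchange, >95% pure by SDS-PAGE. Kinetic constants are means of four independent measurements. For some β-lactams Km was determined as Ki with cephalothin as reporter substrate.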

For experiment [3], the system named is Escherichia coli. Description: Activity of Escherichia coli MC4100 Beta-Lactamase CMY-2. Summed up: as §2
Experiment [4] relates to Escherichia coli. Description: Activity of Escherichia coli MC4100 Beta-Lactamase CMY-30 harboring Val211?Gly211 mutation. Summed up:
as §1

Each structure is given as a SMILES string.

This passage reports kcat/Km, Km and kcat results from ChEMBL document CHEMBL1649546, “Extended-spectrum properties of CMY-30, a Val211Gly mutant of CMY-2 cephalosporinase” (Antimicrob Agents Chemother, 2009).

In the case of `O=C(Cc1cccs1)N[C@@H]1C(=O)N2C(C(=O)O)=C(/C=C/c3ccc([N+](=O)[O-])cc3[N+](=O)[O-])CS[C@H]12`, the kcat/Km is 1.7e+07 M⁻¹ s⁻¹ with Escherichia coli [1] and 4.1e+07 M⁻¹ s⁻¹ with Escherichia coli [2]. In the experiment on Escherichia coli [3], the Michaelis constant (Km) was found to be 21 µM. For the same compound, the catalytic constant (kcat) in the experiment on Escherichia coli [3] was 867 s⁻¹; in the experiment on Escherichia coli [4], 333 s⁻¹.

In general, kcat/Km refers to the turnover number divided by the Michaelis constant. By Km is commonly meant the substrate concentration at which the rate is half of its maximum. As usually defined, the kcat is the maximal rate divided by the concentration of active sites.
